AlphaSeq binding of Ab-14 heavy chain variants to a spike HR2 peptide

Source: Li et al. 2023 (doi:10.1038/s41467-023-39022-2), MIT Lincoln Laboratory and A-Alpha Bio; data file from the FLAb repository.

Antigen: PDVDLGDISGINAS, a 14-residue peptide of the SARS-CoV-2 spike HR2 region.

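The parent was found by panning a naive human phage display library on the peptide. These sequences belong to a second round, designed from the earlier measurements on random variants of the parent. Group labels follow the data file (Ctrl: baseline library sampled from a position-specific scoring matrix, with some repeated check sequences; GP: Gaussian process model; GPLM: also part of the Gaussian process libraries; HC: hill climbing; Gen: genetic algorithm; a sequence that several methods proposed may carry one label only). Affinity was read by AlphaSeq, a pooled yeast mating assay with surface-displayed partners. Binding brings cells together so that they mate, and sequencing counts the barcode pairs among the diploids. Each replicate has its own calibration line, from reference interactions of the BCL2 family. Each pool was mated in six replicate cultures.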

Ab-14 is the parent antibody, in scFv form: VH, then a 15-residue (Gly4Ser)3 linker, then VL. The light chain is unchanged in all variants.
VH: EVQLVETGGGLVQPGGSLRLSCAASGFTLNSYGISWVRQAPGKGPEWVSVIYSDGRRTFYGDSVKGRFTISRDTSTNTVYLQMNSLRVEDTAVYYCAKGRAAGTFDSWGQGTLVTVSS
VL: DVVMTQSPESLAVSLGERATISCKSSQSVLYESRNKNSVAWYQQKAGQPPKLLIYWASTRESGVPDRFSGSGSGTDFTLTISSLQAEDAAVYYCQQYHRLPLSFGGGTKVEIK

Substitutions are numbered in sequence along the VH above, starting at 1 (not Kabat). Scale: log10 of Kd in nM, estimated from mating counts; low values are strong binders. A mean of the replicates is given; it leaves out those without a signal. "n.d." means that the variant was in the library but no mating with the target was seen in that replicate; the authors take this as a sign of poor binding, and no number exists.

{"changes": "T28N S53A G61K S63Q S107K", "group": "Ctrl", "log10 Kd (nM) by replicate": "0.81 2.42 1.33 n.d. n.d. 0.63", "mean, log10 nM": "1.30", "signal with controls": "0/18"}
{"changes": "T28D S31D G61S A101L A102T G103F S107Q", "group": "Ctrl", "log10 Kd (nM) by replicate": "n.d. n.d. n.d. n.d. n.d. n.d.", "mean, log10 nM": "n.d.", "signal with controls": "0/18"}
{"changes": "R56F F105N", "group": "Ctrl", "log10 Kd (nM) by replicate": "n.d. n.d. n.d. n.d. n.d. n.d.", "mean, log10 nM": "n.d.", "signal with controls": "0/18"}
{"changes": "G26R G33S K65D G99C", "group": "Ctrl", "log10 Kd (nM) by replicate": "n.d. n.d. n.d. n.d. n.d. n.d.", "mean, log10 nM": "n.d.", "signal with controls": "0/18"}
{"changes": "F27L L29M R56Q D106L", "group": "Ctrl", "log10 Kd (nM) by replicate": "2.07 n.d. n.d. n.d. n.d. n.d.", "mean, log10 nM": "2.07", "signal with controls": "0/18"}
{"changes": "T28Q N30E", "group": "Ctrl+GP_HC", "log10 Kd (nM) by replicate": "n.d. n.d. n.d. n.d. n.d. n.d.; 1.41 1.52 0.74 1.27 n.d. 0.90", "mean, log10 nM": "1.17", "signal with controls": "0/36"}
{"changes": "G61D K65E T104Q", "group": "Ctrl", "log10 Kd (nM) by replicate": "1.35 2.14 1.77 2.31 n.d. n.d.", "mean, log10 nM": "1.89", "signal with controls": "0/18"}
{"changes": "T28S S31E F59A", "group": "Ctrl+GPLM_Gen", "log10 Kd (nM) by replicate": "-0.14 -0.34 -0.66 -0.62 -0.29 -0.50; -0.12 -0.50 -0.23 -0.35 -0.22 0.03", "mean, log10 nM": "-0.33", "signal with controls": "0/36"}
{"changes": "G61H G99V G103S T104V", "group": "Ctrl", "log10 Kd (nM) by replicate": "n.d. n.d. n.d. 1.34 n.d. n.d.", "mean, log10 nM": "1.34", "signal with controls": "0/18"}
{"changes": "D62S T104Q", "group": "Ctrl", "log10 Kd (nM) by replicate": "n.d. n.d. n.d. n.d. n.d. n.d.", "mean, log10 nM": "n.d.", "signal with controls": "1/18 (-0.05)"}
{"changes": "F27Y S31Q G61L K65R R100S A101I A102P T104F", "group": "Ctrl", "log10 Kd (nM) by replicate": "n.d. n.d. n.d. n.d. n.d. n.d.", "mean, log10 nM": "n.d.", "signal with controls": "0/18"}
{"changes": "G61Q G103F", "group": "Ctrl", "log10 Kd (nM) by replicate": "n.d. n.d. n.d. 2.27 n.d. 2.45", "mean, log10 nM": "2.36", "signal with controls": "1/18 (3.51)"}
{"changes": "T28S S31N", "group": "Ctrl+GPLM_Gen", "log10 Kd (nM) by replicate": "2.00 0.24 0.35 0.44 0.59 1.05; 0.52 0.48 0.92 0.53 1.17 1.19", "mean, log10 nM": "0.79", "signal with controls": "1/36 (1.15)"}
{"changes": "S31D V64F R100F", "group": "Ctrl", "log10 Kd (nM) by replicate": "n.d. n.d. n.d. n.d. 2.40 n.d.", "mean, log10 nM": "2.40", "signal with controls": "0/18"}
{"changes": "G61K F105K", "group": "Ctrl", "log10 Kd (nM) by replicate": "n.d. n.d. n.d. n.d. n.d. n.d.", "mean, log10 nM": "n.d.", "signal with controls": "0/18"}
{"changes": "T28P G61T A102S", "group": "Ctrl", "log10 Kd (nM) by replicate": "n.d. n.d. n.d. 3.23 2.65 n.d.", "mean, log10 nM": "2.94", "signal with controls": "1/18 (2.84)"}
{"changes": "F59S K65S R100Y", "group": "Ctrl", "log10 Kd (nM) by replicate": "n.d. n.d. n.d. n.d. n.d. n.d.", "mean, log10 nM": "n.d.", "signal with controls": "0/18"}
{"changes": "T28M I51H G61D", "group": "Ctrl", "log10 Kd (nM) by replicate": "n.d. n.d. n.d. n.d. n.d. n.d.", "mean, log10 nM": "n.d.", "signal with controls": "1/18 (1.81)"}
{"changes": "R100E A101L", "group": "Ctrl", "log10 Kd (nM) by replicate": "1.46 1.86 1.44 1.26 2.74 1.32", "mean, log10 nM": "1.68", "signal with controls": "0/18"}
{"changes": "Y52G S53A S63N R100T", "group": "Ctrl", "log10 Kd (nM) by replicate": "n.d. n.d. n.d. n.d. n.d. n.d.", "mean, log10 nM": "n.d.", "signal with controls": "0/18"}
{"changes": "L29K R56V S63N R100L", "group": "Ctrl", "log10 Kd (nM) by replicate": "n.d. n.d. n.d. n.d. n.d. n.d.", "mean, log10 nM": "n.d.", "signal with controls": "0/18"}
{"changes": "R56H R100V G103A", "group": "Ctrl", "log10 Kd (nM) by replicate": "n.d. n.d. n.d. n.d. n.d. n.d.", "mean, log10 nM": "n.d.", "signal with controls": "0/18"}
{"changes": "T28S R100Q", "group": "Ctrl+GPLM_Gen", "log10 Kd (nM) by replicate": "1.17 0.68 0.59 0.60 0.56 1.05; 1.57 1.80 1.17 1.82 0.86 0.88", "mean, log10 nM": "1.06", "signal with controls": "1/36 (2.06)"}
{"changes": "G99R R100T T104W", "group": "Ctrl", "log10 Kd (nM) by replicate": "n.d. n.d. n.d. n.d. n.d. n.d.", "mean, log10 nM": "n.d.", "signal with controls": "0/18"}
{"changes": "S53A A101I S107K", "group": "Ctrl", "log10 Kd (nM) by replicate": "0.40 0.39 -0.32 -0.10 0.30 -0.09", "mean, log10 nM": "0.10", "signal with controls": "0/18"}
{"changes": "T28D F59S A101L", "group": "Ctrl", "log10 Kd (nM) by replicate": "0.51 0.17 -0.03 0.31 0.19 0.36", "mean, log10 nM": "0.25", "signal with controls": "0/18"}
{"changes": "F27T I34V A102K", "group": "Ctrl", "log10 Kd (nM) by replicate": "n.d. n.d. n.d. n.d. 0.58 n.d.", "mean, log10 nM": "0.58", "signal with controls": "0/18"}

Excerpt, the first 4 entries:

{"changes": "T28N S53A G61K S63Q S107K", "group": "Ctrl", "log10 Kd (nM) by replicate": "0.81 2.42 1.33 n.d. n.d. 0.63", "mean, log10 nM": "1.30", "signal with controls": "0/18"}
{"changes": "T28D S31D G61S A101L A102T G103F S107Q", "group": "Ctrl", "log10 Kd (nM) by replicate": "n.d. n.d. n.d. n.d. n.d. n.d.", "mean, log10 nM": "n.d.", "signal with controls": "0/18"}
{"changes": "R56F F105N", "group": "Ctrl", "log10 Kd (nM) by replicate": "n.d. n.d. n.d. n.d. n.d. n.d.", "mean, log10 nM": "n.d.", "signal with controls": "0/18"}
{"changes": "G26R G33S K65D G99C", "group": "Ctrl", "log10 Kd (nM) by replicate": "n.d. n.d. n.d. n.d. n.d. n.d.", "mean, log10 nM": "n.d.", "signal with controls": "0/18"}

Some sequences occur more than once in the pool; their replicates are listed entry by entry, parted by semicolons. Empty control strains, which show no peptide, gave a signal in 1% of pairings with all heavy chain designs; the median was 2.08 and 95% of these signals were weaker than 0.84. No background was subtracted. The control count says in how many pairings with the empty strains this scFv gave a signal, with their mean in brackets. Of ten entries with the parent sequence, four were seen in most replicates (averages 0.34 to 2.37), three in one and three in none, so single entries are noisy. A sequence measured in both rounds can read differently, since the two assays cover different ranges. The authors averaged sequences with at least three values out of six and counted those with two or fewer as poor binders.